Five molecules from patent US8372874B2, “Compounds which selectively modulate the CB2 receptor” (Boehringer Ingelheim International GmbH, priority 2008, dated 2013) can be followed below.

The chains behind the UniProt entries cited, without tags or fusion partners.
UniProt P21554, whole entry: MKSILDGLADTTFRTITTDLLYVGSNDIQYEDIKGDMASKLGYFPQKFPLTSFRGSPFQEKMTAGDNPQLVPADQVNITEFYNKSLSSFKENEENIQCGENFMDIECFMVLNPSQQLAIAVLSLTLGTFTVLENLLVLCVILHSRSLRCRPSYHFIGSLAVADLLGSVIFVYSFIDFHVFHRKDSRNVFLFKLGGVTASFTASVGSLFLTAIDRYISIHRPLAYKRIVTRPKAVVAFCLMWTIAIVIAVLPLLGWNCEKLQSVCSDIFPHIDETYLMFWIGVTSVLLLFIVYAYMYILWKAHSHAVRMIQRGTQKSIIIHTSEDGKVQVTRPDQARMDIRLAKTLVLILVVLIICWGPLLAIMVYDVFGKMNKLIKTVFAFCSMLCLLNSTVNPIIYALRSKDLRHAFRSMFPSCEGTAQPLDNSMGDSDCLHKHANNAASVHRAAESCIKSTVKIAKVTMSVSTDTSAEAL
UniProt P34972, whole entry: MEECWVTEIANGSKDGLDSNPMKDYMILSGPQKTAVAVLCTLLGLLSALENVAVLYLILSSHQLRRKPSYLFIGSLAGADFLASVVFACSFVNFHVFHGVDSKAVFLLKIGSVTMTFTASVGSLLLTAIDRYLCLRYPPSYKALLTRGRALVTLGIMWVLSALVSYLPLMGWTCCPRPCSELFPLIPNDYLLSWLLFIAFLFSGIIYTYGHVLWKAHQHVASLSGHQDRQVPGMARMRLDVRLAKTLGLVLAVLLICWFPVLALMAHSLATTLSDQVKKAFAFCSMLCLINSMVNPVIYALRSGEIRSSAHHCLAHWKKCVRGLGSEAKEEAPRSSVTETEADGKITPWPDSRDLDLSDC

What is called EC50 is the midpoint of the concentration-response curve.

One assay deals with human CB1R (Homo sapiens, UniProt P21554). In words: CB1R mediated modulation of cAMP synthesis. The assay is classed as cell-based. The note with it: read-out: CB1 EC50; CHO cells expressing human CB1R; inhibition of forskolin-stimulated cAMP synthesis. As to the method: C. CB1R Mediated Modulation of cAMP Synthesis:
Compounds of the invention are evaluated for their CB1 agonist or inverse agonistic activity in accordance with the following experimental method.
(§1) CHO cells expressing human CB1R (Euroscreen) are plated at a density of 5000 cells per well in 384 well plates and incubated overnight at 37° C. After removing the media, the cells are treated with test compounds diluted in stimulation buffer containing 1 mM IBMX, 0.25% BSA and 10 uM Forskolin. The assay is incubated for 30 minutes at 37° C. Cells are lysed and the cAMP concentration is measured using DiscoverX-XS cAMP kit, following the manufacturer's protocol. In this setting, agonists will decrease forskolin induced production of cAMP while inverse agonists will further increase forskolin induced production of cAMP. EC50 of agonists are calculated as follows. The maximal amount of cAMP produced by forskolin compared to the level of cAMP inhibited by 1 uM CP55940 is defined as 100%. The EC50 value of each test compound is determined as the concentration at which 50% of the forskolin-stimulated cAMP synthesis is inhibited. Data is analyzed using a four-parameter logistic model. (Model 205 of XLfit 4.0).

Another assay concerns the target human CB2R (Homo sapiens, UniProt P34972). In words: CB2R mediated modulation of cAMP synthesis. The note with it: read-out: CB2 EC50; CHO cells expressing human CB2R; inhibition of forskolin-stimulated cAMP synthesis. In kind it is cell-based. As to the method: B. CB2R Mediated Modulation of cAMP Synthesis:
Compounds of the invention are evaluated for their CB2 agonist or inverse agonistic activity in accordance with the following experimental method.
as §1, with “CB2R” for “CB1R”

As for `COCC(C)(C)c1cc(NC(=O)C(C)(C)S(=O)(=O)c2ccc3c(c2)nc(CC(C)(C)C)n3CC2CC2)no1`, the values for the EC50 at human CB1R and on human CB2R were more than 20000 nM and 20 nM, respectively.
Taken in the same sequence, the figures for `CC(C)(COC(=O)C(C)(C)S(=O)(=O)CCCC(F)(F)F)c1cc(NC(=O)C(C)(C)S(=O)(=O)CCCC(F)(F)F)on1` were more than 50000 nM and 402 nM.
Taken in the same sequence, the figures for `CC(C)(C)Cc1nc2cc(S(=O)(=O)C(C)(C)C(=O)Nc3cc(C(C)(C)CO)on3)ccc2n1CC1CC1` were more than 20000 nM and 21 nM.
For `CC(C)(C)Cc1nc2cc(S(=O)(=O)C(C)(C)C(=O)Nc3cc(C(C)(C)CO)no3)ccc2n1CC1CC1` the same measures were more than 20000 nM and 8 nM.
On to `COCC(C)(C)c1cc(NC(=O)C(C)(C)S(=O)(=O)c2ccc3c(c2)nc(CC(C)(C)C)n3CC2CC2)on1`, for which the half-maximal effective concentration (EC50) at human CB1R was more than 20000 nM; at human CB2R, 2.5 nM.
